Assay results reported in ChEMBL document CHEMBL1126969, “Antipsoriatic anthrones with modulated redox properties. 1. Novel 10-substituted 1,8-dihydroxy-9(10H)-anthracenones as inhibitors of 5-lipoxygenase” (J Med Chem, 1993).

Target: T1, Arachidonate 5-lipoxygenase (Bos taurus, UniProt Q9BEG3)
T1 sequence (Q9BEG3 whole entry): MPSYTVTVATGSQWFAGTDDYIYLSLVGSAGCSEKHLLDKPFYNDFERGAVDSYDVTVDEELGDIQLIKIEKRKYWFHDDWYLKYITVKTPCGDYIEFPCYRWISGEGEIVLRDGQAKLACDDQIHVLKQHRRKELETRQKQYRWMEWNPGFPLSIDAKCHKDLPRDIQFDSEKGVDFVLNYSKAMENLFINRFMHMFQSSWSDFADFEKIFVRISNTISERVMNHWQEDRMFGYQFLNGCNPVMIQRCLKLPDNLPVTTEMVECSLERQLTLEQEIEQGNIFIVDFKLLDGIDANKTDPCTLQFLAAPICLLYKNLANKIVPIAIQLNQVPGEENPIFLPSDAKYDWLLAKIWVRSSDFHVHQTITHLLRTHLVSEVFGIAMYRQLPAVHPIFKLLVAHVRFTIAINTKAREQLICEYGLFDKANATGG
Test: Inhibitory activity against 5-lipoxygenase (inhibition of 5-HETE and LTB4 biosynthesis) in bovine polymorphonuclear leukocytes (PMNL).
Assay type: cell-based

- IC50: 14 µM
Compound: COc1cc(CCC(=O)C2c3cccc(O)c3C(=O)c3c(O)cccc32)cc(OC)c1OC
